Eight molecules from patent US8962608B2, “Cycloalkylnitrile pyrazole carboxamides as janus kinase inhibitors” (Merck Sharp & Dohme Corp., priority 2011, dated 2015) can be followed below.

Chains of the proteins cited; added tags and fusions are not shown. Residues count along the entry.
UniProt P23458, 875-1153: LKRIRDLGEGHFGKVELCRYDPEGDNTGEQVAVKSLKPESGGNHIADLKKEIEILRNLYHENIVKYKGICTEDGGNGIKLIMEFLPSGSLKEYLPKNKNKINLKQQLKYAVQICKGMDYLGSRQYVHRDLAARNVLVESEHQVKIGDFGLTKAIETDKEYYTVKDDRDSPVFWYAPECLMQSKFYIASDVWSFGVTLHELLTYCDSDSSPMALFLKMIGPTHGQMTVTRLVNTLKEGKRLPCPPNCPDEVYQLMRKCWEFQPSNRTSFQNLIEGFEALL
UniProt O60674, 849-1124: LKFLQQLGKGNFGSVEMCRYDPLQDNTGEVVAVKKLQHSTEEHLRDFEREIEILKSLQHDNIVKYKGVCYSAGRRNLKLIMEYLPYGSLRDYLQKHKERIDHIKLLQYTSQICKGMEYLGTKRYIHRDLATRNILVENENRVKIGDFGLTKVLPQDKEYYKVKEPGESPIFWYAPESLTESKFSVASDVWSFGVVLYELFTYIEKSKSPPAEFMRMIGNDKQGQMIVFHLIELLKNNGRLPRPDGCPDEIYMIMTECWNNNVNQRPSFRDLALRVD

As usually defined, the IC50 is the concentration that gives 50% inhibition.

The target in assay [1] is JAK1 (recombinant purified GST-tagged catalytic domain) (Homo sapiens (Human), UniProt P23458). Put plainly: biochemical.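 Also: biochemical assay with HTRF read-out.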
Assay [2] has as its target JAK2 (recombinant purified GST-tagged catalytic domain) (Homo sapiens (Human), UniProt O60674). Put plainly: biochemical.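 Also: biochemical JAK kinase assay with HTRF detection.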

For `N#C[C@H]1C[C@H](N2CC3(CCC3)C2)CC[C@@H]1n1cc(C(N)=O)c(Nc2ccc([C@@H](O)C(F)(F)F)cc2)n1` (single isomer, unassigned) [Example 28-92, 1-[(1S,2S,4R or 1R,2R,4S)-4-(2-azaspiro[3.3]hept-2-yl)-2-cyanocyclohexyl]-3-({4-[(1R or 1S)-2,2,2-trifluoro-1-hydroxyethyl]phenyl}amino)-1H-pyrazole-4-carboxamide], the 50% inhibitory concentration (IC50) in assay [1] stood at 0.1 nM; in assay [2], 27 nM.

As to `N#C[C@H]1C[C@H](N2CCC2)CC[C@@H]1n1cc(C(N)=O)c(Nc2ccnc(F)c2)n1` (single isomer, unassigned) [Example 28-101, 1-[(1S,2S,4R or 1R,2R,4S)-4-azetidin-1-yl-2-cyanocyclohexyl]-3-[(2-fluoropyridin-4-yl)amino]-1H-pyrazole-4-carboxamide], the 50% inhibitory concentration (IC50) in assay [1] was 4 nM; in assay [2], 69 nM.

For the molecule `N#C[C@H]1C[C@@H](N2CCC2)CC[C@@H]1n1cc(C(N)=O)c(Nc2ccnc(F)c2)n1` (single isomer, unassigned) [Example 28-110, 1-[(1S,2S,4S or 11R,2R,4R)-4-azetidin-1-yl-2-cyanocyclohexyl]-3-[(2-fluoropyridin-4-yl)amino]-1H-pyrazole-4-carboxamide], the IC50 in assay [1] was 2 nM; in assay [2], 37 nM.

As for `CC1CN([C@H]2CC[C@H](n3cc(C(N)=O)c(Nc4ccc(S(=O)(=O)C(F)(F)F)cc4)n3)[C@@H](C#N)C2)C1` (single isomer, unassigned) [Example 28-186, 1-[(1S,2S,4S or 1R,2R,4R)-2-cyano-4-(3-methylazetidin-1-yl)cyclohexyl]-3-({4-[(trifluoromethyl)sulfonyl]phen-yl}amino)-1H-pyrazole-4-carboxamide], the results for the half-maximal inhibitory concentration (IC50) in assay [1] and in assay [2] were 0.15 nM and 9 nM, respectively.

Regarding `CC1CN([C@@H]2CC[C@H](n3cc(C(N)=O)c(Nc4ccc(S(=O)(=O)C(F)(F)F)cc4)n3)[C@@H](C#N)C2)C1` (single isomer, unassigned) [Example 28-187, 1-[(1S,2S,4R or 1R,2R,4S)-2-cyano-4-(3-methylazetidin-1-yl)cyclohexyl]-3-({4-[(trifluoromethyl)sulfonyl]phen-yl}amino)-1H-pyrazole-4-carboxamide], the IC50 is 0.2 nM in assay [1] and 25 nM in assay [2].

For `CC1(C)CCN1[C@H]1CC[C@H](n2cc(C(N)=O)c(Nc3ccc(C(F)(F)F)cc3)n2)[C@@H](C#N)C1` (single isomer, unassigned) [Example 28-196, 1-[(1S,2S,4S or 1R,2R,4R)-2-cyano-4-(2,2-dimethylazetidin-1-yl)cyclohexyl]-3-{[4-(trifluoromethyl)phenyl]amino}-1H-pyrazole-4-carboxamide], the values for the IC50 in assay [1] and in assay [2] were 1 nM and 34 nM, respectively.

In the case of `CC1(C)CCN1[C@@H]1CC[C@H](n2cc(C(N)=O)c(Nc3ccc(C(F)(F)F)cc3)n2)[C@@H](C#N)C1` (single isomer, unassigned) [Example 28-197, 1-[(1S,2S,4R or 1R,2R,4S)-2-cyano-4-(2,2-dimethylazetidin-1-yl)cyclohexyl]-3-{[4-(trifluoromethyl)phenyl]amino}-1H-pyrazole-4-carboxamide], the 50% inhibitory concentration (IC50) in assay [1] came out at 7 nM; in assay [2] it was 430 nM.

For `CC(C)(NC1CCC(n2cc(C(N)=O)c(Nc3ccc(Cl)cc3)n2)[C@@H](C#N)C1)C1CC1` (single isomer, unassigned) [Example 28-208, 3-[(4-chlorophenyl)amino]-1-{(1S,2S or 1R,2R)-2-cyano-4-[(1-cyclopropyl-1-methylethyl)amino]cyclohexyl}-1H-pyrazole-4-carboxamide], the IC50 in assay [1] came out at 0.15 nM; in assay [2], 17 nM.
